Our source for the half-life values is patent US11471417B2 (Small Pharma Ltd, priority 2020, dated 2022).

SMILES strings stand for the structures.

The data set is described as follows: In vitro human mitochondrial fraction intrinsic clearance of SPL026 and SPL028 analogues. The note with it: liver mitochondrial fraction.

One may read the half-life as the time in which the quantity being followed falls by half. A lower half-life goes with rapid decline. For `[2H]C([2H])([2H])N(C([2H])([2H])[2H])C([2H])([2H])Cc1c[nH]c2ccccc12` [SPL028viii, α,α-dideutero-N,N-bis(trideutero)dimethyltryptamine], the half-life was determined as 2.02 h (Half-Life R1, human liver mitochondrial fraction, replicate R1) and 2.13 h (Half-life, 0.5 mg/mL human liver mitochondrial fraction, first experiment r7-r12, repeat r13-r20).
